By UniProt entry, the sequences of proteins in these tests, tags left out. Chains listed by the source or under a name are the forms on record and can include a tag or linker.
UniProt Q9GZT9, with tags, fused parts or gaps DEL76-177: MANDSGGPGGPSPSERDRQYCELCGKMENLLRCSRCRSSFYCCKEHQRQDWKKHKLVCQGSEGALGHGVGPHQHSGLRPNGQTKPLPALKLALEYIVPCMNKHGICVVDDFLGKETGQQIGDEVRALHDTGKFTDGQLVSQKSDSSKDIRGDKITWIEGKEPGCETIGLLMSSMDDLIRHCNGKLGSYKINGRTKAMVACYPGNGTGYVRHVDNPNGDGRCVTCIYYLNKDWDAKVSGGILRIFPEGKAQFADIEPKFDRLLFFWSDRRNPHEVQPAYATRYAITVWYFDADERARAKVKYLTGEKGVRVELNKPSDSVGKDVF

In US6566088B1, “Prolyl-4-hydroxylases” (Board of Regents, The University of Texas System, priority 2001, dated 2003):

Biological target: T1, HPH 2 (Homo sapiens, UniProt Q9GZT9, DEL76-177)
T1 construct: MBP (N); made in house; host or cells: E. coli BL21-CodonPlus-RIL
Assay: Activity of purified recombinant HPH 2 on HIF-1a peptide substrate
Format: biochemical

`O=C(O)CCC(=O)C(=O)O` [2-oxoglutarate] was tested, and the “effect on activity of the HPH 2 enzyme” value was “greatly stimulated”.
